Sequences of proteins named here, by UniProt entry; tags and fusion partners are left off. A change or cut given only in a name is not applied to a line headed by its entry.
UniProt Q9NRG4: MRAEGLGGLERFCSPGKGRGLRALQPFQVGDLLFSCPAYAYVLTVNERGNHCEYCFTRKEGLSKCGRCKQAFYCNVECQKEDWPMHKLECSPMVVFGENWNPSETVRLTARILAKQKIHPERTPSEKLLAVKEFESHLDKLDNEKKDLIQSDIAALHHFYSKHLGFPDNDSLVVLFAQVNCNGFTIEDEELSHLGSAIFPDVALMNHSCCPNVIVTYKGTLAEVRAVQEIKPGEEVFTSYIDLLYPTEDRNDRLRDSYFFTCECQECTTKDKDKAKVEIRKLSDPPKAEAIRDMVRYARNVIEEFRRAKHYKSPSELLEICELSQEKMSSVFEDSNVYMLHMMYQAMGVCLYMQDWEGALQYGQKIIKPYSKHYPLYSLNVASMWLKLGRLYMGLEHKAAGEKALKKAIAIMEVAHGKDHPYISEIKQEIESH

According to patent US10266526B2, “Substituted 1,2,3-triazoles as SMYD inhibitors for treating cancer” (EPIZYME, INC., priority 2014, dated 2019):

Target: SMYD2 (Homo sapiens (Human), UniProt Q9NRG4)
Assay: SMYD2 biochemical assay (SMYD2 enzyme assay on peptide substrate, 3H-SAM Flashplate)
Details: SMYD2 Biochem IC50 (μM), IC50 values are an average of n = 1 to n = 50

Point of comparison: `O=C(NC1CN(C[C@H]2C[C@H](OCc3ccccc3)C2)C1)c1cn(C2CC2)nn1` [compound 969, rac-N-(1-(((1r,3r)-3-(benzyloxy)cyclobutyl)methyl)azetidin-3-yl)-1-cyclopropyl-1H-1,2,3-triazole-4-carboxamide], IC50 0.98 µM. Against it:
- O=C(NC1CN(C[C@H]2C[C@@H](OCc3ccccc3)C2)C1)c1cn(C2CC2)nn1 [compound 1008, rac-N-(1-(((1s,3s)-3-(benzyloxy)cyclobutyl)methyl)azetidin-3-yl)-1-cyclopropyl-1H-1,2,3-triazole-4-carboxamide] — within 1.5-fold, 1.2 µM

Same assay, conditions: SMYD2 Biochem IC50, IC50 values are an average of n = 1 to n = 50

Point of comparison: `O=C(NC1CN(C[C@H]2C[C@@H](OCc3ccccc3)C2)C1)c1cn(C2CC2)nn1` [compound 843, (±)-cis-N-(1-{[3-(benzyloxy)cyclobutyl]methyl}azetidin-3-yl)-1-cyclopropyl-1H-1,2,3-triazole-4-carboxamide], IC50 1.16 µM. Against it:
- C[C@@H](c1cc(Cl)ccc1Cl)N1CC(NC(=O)c2cn(C3CC3)nn2)C1 (single isomer, unassigned) [compound 779] — 11-fold lower, 0.11 µM
- COc1cccc([C@@H](C)N2CC(NC(=O)c3cn(C4CC4)nn3)C2)c1OC (single isomer, unassigned) [compound 804] — 26-fold lower, 0.0443 µM
- O=C(NC1CN(C[C@H]2C[C@H](OCc3ccccc3)C2)C1)c1cn(C2CC2)nn1 [compound 852, (±)-trans-N-(1-{[3-(benzyloxy)cyclobutyl]methyl}azetidin-3-yl)-1-cyclopropyl-1H-1,2,3-triazole-4-carboxamide] — within 1.5-fold, 0.982 µM

Same assay, conditions: read-out: SMYD2 Biochem IC50; IC50 values are an average of n = 1 to n = 50

Point of comparison: `CC(c1ccc(OCC2CCCNC2)cc1)N1CC(NC(=O)c2cn(C3CC3)nn2)C1` (stereo not shown) [compound 990, 1-cyclopropyl-N-(1-(1-(4-(piperidin-3-ylmethoxy)phenyl)ethyl)azetidin-3-yl)-1H-1,2,3-triazole-4-carboxamide], IC50 3.3 µM. Against it:
- CC(Cc1ccccc1)N1CC(NC(=O)c2cn(C3CC3)nn2)C1 (stereo not shown) [compound 759, 1-cyclopropyl-N-[1-(1-phenylpropan-2-yl)azetidin-3-yl]-1H-1,2,3-triazole-4-carboxamide] — 2.4-fold lower, 1.39 µM
- COc1ccccc1C(C)N1CC(NC(=O)c2cn(C3CC3)nn2)C1 (stereo not shown) [compound 682, 1-cyclopropyl-N-{1-[1-(2-methoxyphenyl)ethyl]azetidin-3-yl}-1H-1,2,3-triazole-4-carboxamide] — 5-fold lower, 0.665 µM
- CC(c1ccc(OCc2cccc(Cl)c2)cc1)N1CC(NC(=O)c2cn(C3CC3)nn2)C1 (stereo not shown) [compound 997, N-(1-(1-(4-((3-chlorobenzyl)oxy)phenyl)ethyl)azetidin-3-yl)-1-cyclopropyl-1H-1,2,3-triazole-4-carboxamide] — 12-fold lower, 0.27 µM
- CCC(c1nccs1)N1CC(NC(=O)c2cn(C3CC3)nn2)C1 (stereo not shown) [compound 751, 1-cyclopropyl-N-{1-[1-(1,3-thiazol-2-yl)propyl]azetidin-3-yl}-1H-1,2,3-triazole-4-carboxamide] — 6.4-fold higher, 21 µM
- CN(C)CCOc1cccc(CN2CC(NC(=O)c3cn(C4CC4)nn3)C2)c1 [compound 736, 1-cyclopropyl-N-[1-({3-[2-(dimethylamino)ethoxy]phenyl}methyl)azetidin-3-yl]-1H-1,2,3-triazole-4-carboxamide] — within 1.5-fold, 2.81 µM
- CC(c1cccc(C(F)(F)F)c1)N1CC(NC(=O)c2cn(C3CC3)nn2)C1 (stereo not shown) [compound 748, 1-cyclopropyl-N-(1-{1-[3-(trifluoromethyl)phenyl]ethyl}azetidin-3-yl)-1H-1,2,3-triazole-4-carboxamide] — within 1.5-fold, 2.81 µM
- CC(c1cncnc1)N1CC(NC(=O)c2cn(C3CC3)nn2)C1 (stereo not shown) [compound 699, 1-cyclopropyl-N-{1-[1-(pyrimidin-5-yl)ethyl]azetidin-3-yl}-1H-1,2,3-triazole-4-carboxamide] — 2.9-fold higher, 9.54 µM
- CC(c1cccc(Cl)c1)N1CC(NC(=O)c2cn(C3CC3)nn2)C1 (stereo not shown) [compound 695, N-{1-[1-(3-chlorophenyl)ethyl]azetidin-3-yl}-1-cyclopropyl-1H-1,2,3-triazole-4-carboxamide] — 3.3-fold lower, 1.01 µM
- CC(c1ccccn1)N1CC(NC(=O)c2cn(C3CC3)nn2)C1 (stereo not shown) [compound 685, 1-cyclopropyl-N-{1-[1-(pyridin-2-yl)ethyl]azetidin-3-yl}-1H-1,2,3-triazole-4-carboxamide] — within 1.5-fold, 3.56 µM
- COc1cccc(C(C)N2CC(NC(=O)c3cn(C4CC4)nn3)C2)c1OC (stereo not shown) [compound 764, 1-cyclopropyl-N-{1-[1-(2,3-dimethoxyphenyl)ethyl]azetidin-3-yl}-1H-1,2,3-triazole-4-carboxamide] — 35-fold lower, 0.0935 µM
- CC(C)C(c1ccc(F)cc1)N1CC(NC(=O)c2cn(C3CC3)nn2)C1 (stereo not shown) [compound 760, 1-cyclopropyl-N-{1-[1-(4-fluorophenyl)-2-methylpropyl]azetidin-3-yl}-1H-1,2,3-triazole-4-carboxamide] — within 1.5-fold, 3.27 µM
- CC(c1ccc(NC(=O)c2ccccc2)cc1)N1CC(NC(=O)c2cn(C3CC3)nn2)C1 (stereo not shown) [compound 863, N-{1-[1-(4-benzamidophenyl)ethyl]azetidin-3-yl}-1-cyclopropyl-1H-1,2,3-triazole-4-carboxamide] — 1.9-fold lower, 1.74 µM
- CC(c1ccc(OCc2ccc(Cl)cc2)cc1)N1CC(NC(=O)c2cn(C3CC3)nn2)C1 (stereo not shown) [compound 996, N-(1-(1-(4-((4-chlorobenzyl)oxy)phenyl)ethyl)azetidin-3-yl)-1-cyclopropyl-1H-1,2,3-triazole-4-carboxamide] — 48-fold lower, 0.069 µM
- CC(c1cc(Cl)ccc1Cl)N1CC(NC(=O)c2cn(C3CC3)nn2)C1 (stereo not shown) [compound 696, 1-cyclopropyl-N-{1-[1-(2,5-dichlorophenyl)ethyl]azetidin-3-yl}-1H-1,2,3-triazole-4-carboxamide] — 18-fold lower, 0.187 µM
- CC(c1cccc(OCCN(C)C)c1)N1CC(NC(=O)c2cn(C3CC3)nn2)C1 (stereo not shown) [compound 706, 1-cyclopropyl-N-[1-(1-{3-[2-(dimethylamino)ethoxy]phenyl}ethyl)azetidin-3-yl]-1H-1,2,3-triazole-4-carboxamide] — 1.6-fold lower, 2.12 µM
- CNCc1cccc(CN2CC(NC(=O)c3cn(C4CC4)nn3)C2)c1 [compound 753, 1-cyclopropyl-N-[1-({3-[(methylamino)methyl]phenyl}methyl)azetidin-3-yl]-1H-1,2,3-triazole-4-carboxamide] — 4.8-fold higher, 16 µM
- O=C(NC1CN(C2CC2)C1)c1cn(C2CC2)nn1 [compound 664, 1-cyclopropyl-N-(1-cyclopropylazetidin-3-yl)-1H-1,2,3-triazole-4-carboxamide] — 2.2-fold lower, 1.48 µM
- CC(c1ccc(Cl)cc1)N1CC(NC(=O)c2cn(C3CC3)nn2)C1 (stereo not shown) [compound 676, N-{1-[1-(4-chlorophenyl)ethyl]azetidin-3-yl}-1-cyclopropyl-1H-1,2,3-triazole-4-carboxamide] — 1.5-fold lower, 2.18 µM
- CC(c1ccc(OCc2ccc(Cl)cc2)cc1)N1CC(NC(=O)c2cn(C3CC3)nn2)C1 (stereo not shown) [compound 848, N-[1-(1-{4-[(4-chlorophenyl)methoxy]phenyl}ethyl)azetidin-3-yl]-1-cyclopropyl-1H-1,2,3-triazole-4-carboxamide] — 48-fold lower, 0.0693 µM
- O=C(NC1CN(Cc2ccc(OCC(O)CO)cc2)C1)c1cn(C2CC2)nn1 (stereo not shown) [compound 819, 1-cyclopropyl-N-(1-{[4-(2,3-dihydroxypropoxy)phenyl]methyl}azetidin-3-yl)-1H-1,2,3-triazole-4-carboxamide] — 1.7-fold lower, 1.99 µM
- CC(C)(c1ccccc1)N1CC(NC(=O)c2cn(C3CC3)nn2)C1 [compound 757, 1-cyclopropyl-N-[1-(2-phenylpropan-2-yl)azetidin-3-yl]-1H-1,2,3-triazole-4-carboxamide] — within 1.5-fold, 3.88 µM
- CC(c1ccc(Cl)c(C(F)(F)F)c1)N1CC(NC(=O)c2cn(C3CC3)nn2)C1 (stereo not shown) [compound 712, N-(1-{1-[4-chloro-3-(trifluoromethyl)phenyl]ethyl}azetidin-3-yl)-1-cyclopropyl-1H-1,2,3-triazole-4-carboxamide] — 2.2-fold higher, 7.36 µM
- CNCc1cccc(CN2CC(NC(=O)c3cn(C4CC4)nn3)C2)c1OC [compound 812, 1-cyclopropyl-N-[1-({2-methoxy-3-[(methylamino)methyl]phenyl}methyl)azetidin-3-yl]-1H-1,2,3-triazole-4-carboxamide] — 12-fold higher, 41.2 µM
- CC(c1ccc(F)cc1F)N1CC(NC(=O)c2cn(C3CC3)nn2)C1 (stereo not shown) [compound 677, 1-cyclopropyl-N-{1-[1-(2,4-difluorophenyl)ethyl]azetidin-3-yl}-1H-1,2,3-triazole-4-carboxamide] — within 1.5-fold, 2.86 µM
- CC(c1ccc(OCC(=O)N2CCCCC2)cc1)N1CC(NC(=O)c2cn(C3CC3)nn2)C1 (stereo not shown) [compound 1004, 1-cyclopropyl-N-(1-(1-(4-(2-oxo-2-(piperidin-1-yl)ethoxy)phenyl)ethyl)azetidin-3-yl)-1H-1,2,3-triazole-4-carboxamide] — 2.2-fold lower, 1.5 µM
- CNCc1cccc(C(C)N2CC(NC(=O)c3cn(C4CC4)nn3)C2)c1 (stereo not shown) [compound 771, 1-cyclopropyl-N-[1-(1-{3-[(methylamino)methyl]phenyl}ethyl)azetidin-3-yl]-1H-1,2,3-triazole-4-carboxamide] — 1.5-fold higher, 4.98 µM
- CC(c1ccc(OCC2CCCNC2)cc1)N1CC(NC(=O)c2cn(C3CC3)nn2)C1 (stereo not shown) [compound 850, 1-cyclopropyl-N-(1-{1-[4-(piperidin-3-ylmethoxy)phenyl]ethyl}azetidin-3-yl)-1H-1,2,3-triazole-4-carboxamide] — within 1.5-fold, 3.33 µM
- CCN1CC(NC(=O)c2cn(C3CC3)nn2)C1 [compound 661, 1-cyclopropyl-N-(1-ethylazetidin-3-yl)-1H-1,2,3-triazole-4-carboxamide] — 2.1-fold lower, 1.58 µM
- COc1cccc2c1CCCC2N1CC(NC(=O)c2cn(C3CC3)nn2)C1 (stereo not shown) [compound 738, 1-cyclopropyl-N-[1-(5-methoxy-1,2,3,4-tetrahydronaphthalen-1-yl)azetidin-3-yl]-1H-1,2,3-triazole-4-carboxamide] — 1.8-fold higher, 5.83 µM
- CC(c1ccc(F)c(F)c1)N1CC(NC(=O)c2cn(C3CC3)nn2)C1 (stereo not shown) [compound 687, 1-cyclopropyl-N-{1-[1-(3,4-difluorophenyl)ethyl]azetidin-3-yl}-1H-1,2,3-triazole-4-carboxamide] — within 1.5-fold, 2.9 µM
